The numbers were not newly measured in patent publication US7927622B1, “Methods of transnasal transport/immunization with highly adaptable carriers” (priority 1999, dated 2011), which cites them from elsewhere.

In general, half-life refers to the time needed for the level to fall by half in the phase considered.

For series [1] the following is noted: in vivo, inhaled or intranasal; cited from earlier work.
For series [2] the following is noted: in vivo, inhaled or intranasal; cited from earlier work. This is another data set of the same source.
The conditions of series [3]: in vivo, cited from earlier work.

For the substance insulin, the nasal insulin bioavailability in series [1] was 4-9%. In addition, the bioavailability result in series [2] was “greater than 10%”.
Consider “desglycinamide-[Arg8]vasopressin [DGAVP]”, for which, in series [3] (po), the relative bioavailability is recorded as 0.7%. Moreover, in series [3], the half-life is 35 to 38 min, the mean absorption half-life entry is “around 8 min” and the “time of peak levels” value is 15 min.
